Assay results: ChEMBL document CHEMBL5537192, “Specific Inhibitors of Mitochondrial Deacylase Sirtuin 4 Endowed with Cellular Activity” (J Med Chem, 2024)

How the values were obtained:
[1] = target: T1, NAD-dependent protein lipoamidase sirtuin-4, mitochondrial (Mus musculus) (UniProt Q8R216); conditions: C2C12, dose 10-50 mM, time 4.0 hrs
T1 sequence (whole entry): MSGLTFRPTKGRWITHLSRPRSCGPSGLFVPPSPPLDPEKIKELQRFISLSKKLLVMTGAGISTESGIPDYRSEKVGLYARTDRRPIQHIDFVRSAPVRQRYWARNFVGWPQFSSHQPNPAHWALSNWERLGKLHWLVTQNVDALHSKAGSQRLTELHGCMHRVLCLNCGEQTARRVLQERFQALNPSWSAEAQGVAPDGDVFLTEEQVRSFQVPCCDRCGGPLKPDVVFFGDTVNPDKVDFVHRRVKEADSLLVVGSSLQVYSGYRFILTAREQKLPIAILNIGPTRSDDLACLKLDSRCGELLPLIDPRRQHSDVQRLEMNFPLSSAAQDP

[2] = target: T1, NAD-dependent protein lipoamidase sirtuin-4, mitochondrial (Mus musculus); conditions: C2C12, dose 10-50 mM, time 8.0 day
[3] = target: T1, NAD-dependent protein lipoamidase sirtuin-4, mitochondrial (Mus musculus); conditions: C2C12, dose 20-50 nM, time 4.0 hrs
[4] = target: T1, NAD-dependent protein lipoamidase sirtuin-4, mitochondrial (Mus musculus); conditions: C2C12, dose 20-50 nM, time 8.0 day

inhibition [1]	inhibition [2]	inhibition [3]	inhibition [4]	Structure (SMILES)
inactive	Active	–	–	NC(=O)c1cccnc1
–	–	inactive	inactive	CC(/C=C/C(=O)NO)=C\[C@@H](C)C(=O)c1ccc(N(C)C)cc1

The source made the active and inactive calls. The calls are words filed in the database; no cut-off is given here.
